One assay concerns the target Proteinase 3 (PR3) (Homo sapiens, UniProt P24158). The experiment in a line: Enzymatic activity assay, PR3 (FRET peptide Abz-VADnVADYQ-EDDnp). Format: biochemical. Conditions: read-out: IC50 PR3; racemates (±) and S-enantiomers, Table S11.
Another assay deals with HNE (Homo sapiens, UniProt P08246). As to the kind of experiment: Enzymatic activity assay, HNE (fluorogenic substrate MeOSuc-AAPV-AMC). Format: biochemical. Conditions: read-out: IC50 HNE; racemates (±) and S-enantiomers, Table S11.

The chains behind the UniProt entries cited, without tags or fusion partners. Residues count along the entry.
UniProt P24158, 28-256 limits assumed: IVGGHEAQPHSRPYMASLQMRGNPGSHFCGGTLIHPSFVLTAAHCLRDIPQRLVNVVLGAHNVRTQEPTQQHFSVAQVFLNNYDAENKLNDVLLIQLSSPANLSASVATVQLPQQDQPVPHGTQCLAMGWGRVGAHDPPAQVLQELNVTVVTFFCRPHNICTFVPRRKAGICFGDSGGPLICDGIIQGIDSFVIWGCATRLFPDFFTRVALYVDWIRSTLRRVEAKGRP
UniProt P08246, 30-267 limits assumed: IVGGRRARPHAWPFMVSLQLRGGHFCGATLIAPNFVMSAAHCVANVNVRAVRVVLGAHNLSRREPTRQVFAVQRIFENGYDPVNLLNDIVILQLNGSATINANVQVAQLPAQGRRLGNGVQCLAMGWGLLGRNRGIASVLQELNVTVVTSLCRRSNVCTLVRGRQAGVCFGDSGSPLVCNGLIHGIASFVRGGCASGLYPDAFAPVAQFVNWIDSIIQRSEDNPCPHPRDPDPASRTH

Broadly, the IC50 is the concentration needed to halve the response being measured. For the compound `CC1=C(C#N)C(c2ccc(C#N)cc2)n2nc(NC(=O)C3CC3)nc2N1c1cccc(C(F)(F)F)c1` (racemic), the half-inhibitory concentration (IC50) at Proteinase 3 (PR3) was found to be 16.3 nM; at HNE, 1.4 nM.
In the case of `CNc1nc2n(n1)[C@@H](c1ccc(C#N)cc1)C(C#N)=C(C)N2c1cccc(C(F)(F)F)c1`, the IC50 at Proteinase 3 (PR3) came to 29300 nM; on HNE it was 128 nM.
As for `CNc1nc2n(n1)C(c1ccc(C#N)cc1)C(C#N)=C(C)N2c1cccc(C(F)(F)F)c1` (racemic), the IC50 at Proteinase 3 (PR3) is 331 nM; on HNE, 2.3 nM.
With `CNC(=O)Nc1nc2n(n1)[C@@H](c1ccc(C#N)cc1)C(C#N)=C(C)N2c1cccc(C(F)(F)F)c1`, the IC50 turned out to be 6300 nM on Proteinase 3 (PR3) and 122 nM on HNE.
The matching figures for `CC1=C(C#N)[C@H](c2ccc(C#N)cc2)n2nc(NC(=O)C3CC3)nc2N1c1cccc(C(F)(F)F)c1`: 19500 nM and 798 nM.
Take `COC(=O)Nc1nc2n(n1)[C@@H](c1ccc(C#N)cc1)C(C#N)=C(C)N2c1cccc(C(F)(F)F)c1`: the IC50 was 4760 nM at Proteinase 3 (PR3) and 84.4 nM at HNE.
Regarding `COC(=O)Nc1nc2n(n1)C(c1ccc(C#N)cc1)C(C#N)=C(C)N2c1cccc(C(F)(F)F)c1` (racemic), the concentration for half-maximal inhibition (IC50) came out at 36.3 nM on Proteinase 3 (PR3) and 1.4 nM on HNE.
Take `CNC(=O)Nc1nc2n(n1)C(c1ccc(C#N)cc1)C(C#N)=C(C)N2c1cccc(C(F)(F)F)c1` (racemic): the 50% inhibitory concentration (IC50) amounted to 133 nM on Proteinase 3 (PR3) and 1.5 nM on HNE.

The values above are taken from paper PMC10865350, “Investigating Polypharmacology through Targeting Known Human Neutrophil Elastase Inhibitors to Proteinase 3” (Journal of Chemical Information and Modeling, 2024).
